## scFv variants of Ab-14 (heavy chain) against a SARS-CoV-2 spike peptide

Data: MIT Lincoln Laboratory AlphaSeq set, Li et al. 2023, doi:10.1038/s41467-023-39022-2, as distributed in FLAb.

Binding partner: SARS-CoV-2 spike HR2 peptide, sequence PDVDLGDISGINAS.

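The parent was found by panning a naive human phage display library on the peptide. These sequences belong to a second round, designed from the earlier measurements on random variants of the parent. Several design methods are mixed in this list. In AlphaSeq, yeast of one mating type display the scFv and yeast of the other type display the target. Pairs that bind mate more often; barcode pairs of the diploids are counted by sequencing. Scores were corrected for input abundance and mapped to Kd with protein pairs of known affinity run in the same pool. Mating was done six times.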

Each scFv is VH, three GGGGS repeats, VL, as in the parent Ab-14, and differs from it in the CDRs of the heavy chain only.
VH: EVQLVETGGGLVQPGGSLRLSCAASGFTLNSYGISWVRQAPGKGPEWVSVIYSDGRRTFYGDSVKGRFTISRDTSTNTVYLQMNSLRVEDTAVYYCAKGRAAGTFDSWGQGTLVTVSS
VL: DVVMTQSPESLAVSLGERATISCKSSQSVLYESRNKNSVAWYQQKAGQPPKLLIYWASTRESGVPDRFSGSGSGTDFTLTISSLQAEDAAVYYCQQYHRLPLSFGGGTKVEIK

Each variant is given by its three heavy chain CDRs, as the data file delimits them; those of the parent are GFTLNSYGIS, VIYSDGRRTFYGDSVK, GRAAGTFDS. Variants here have more than six changes. Kd is apparent (estimated from mating counts) and averaged on the log scale over replicates with a signal. Smaller is tighter. An entry "no signal" has no value in the source: the pair was not observed among the diploids in any replicate. This suggests poor binding but is not conclusive. Nonspecific signal, from three strains lacking the peptide, appeared in 1% of pairings of all heavy chain designs, centred on 120 nM (5% of these signals below 7.0 nM); values are not corrected for it. Of ten entries with the parent sequence, four were seen in most replicates (averages 2.2 nM to 240 nM), three in one and three in none, so single entries are noisy. In the paper, a design with two or fewer of six values counts as a poor binder. A sequence measured in both rounds can read differently, since the two assays cover different ranges.

CDR-H1,CDR-H2,CDR-H3,apparent Kd,seen in
GFDLNEYGIS,VIYADGVRTAYSDSVK,GENAGTFDV,510 pM,6 of 6
GFNLDEYGVS,VIYADGQRTAYVQTVK,GKTVFVLFD,no signal,0 of 6
GYDLQEYGVS,VIYADGRRSVYINSVK,GLSAGTFVF,no signal,0 of 6
GFDLNEYGIS,VIYADGQRTAYADNVK,GENAGTFDI,690 pM,6 of 6
GFDLEDYGIS,VIYADGKRTAYADSVK,GEVAGTFDL,2.6 nM,6 of 6
GFNLEDYGIS,VIYADGRRTFYQDSVK,GKVAGTFDV,370 pM,6 of 6
GFDLEEFGVS,VIYADGKRAAYTESVK,GHEGAHFTV,170 nM,1 of 6
GFDLNEYGIS,VIYADGSRTAYVDSVK,GNQAGTFDV,36 pM,3 of 6
GFDLEEWGIS,VIYADGSRTAYADNVK,GMSGADLMF,no signal,0 of 6
GFDLNEYGIS,VIYADGMRTVYADDVK,GENAGTFDI,630 pM,6 of 6
GYDIEDYGIS,VIYADGVRKVYHDSVK,GQLAGFFIT,no signal,0 of 6
GFDLNEYGIS,VIYADGKRTAYADDVK,GEVAGTFDV,110 pM,6 of 6
GFDINDYGIS,VIYADGLRTSYSTNFK,GIIAGTFTS,700 pM,6 of 6
GFDLNEYGIS,VIYADGMRKFYADSVK,GNTAGTFDV,61 pM,6 of 6
GFDLNEYGIS,VIYADGMRTAYADSVK,GEQAGTFDL,430 pM,6 of 6
GFNIDEYGIS,VIYADGARTAYADKVK,GFNWNISVN,no signal,0 of 6
GFDLNEYGIS,VIYADGVRTFYTDSVK,GGNAGTFDS,340 pM,6 of 6
GFDLDEYGIS,VIYADGMRTAYSDSVK,GEVAGTFDI,460 pM,6 of 6
GFDLNEYGIS,VIYADGMRTFYADSVK,GQVAGTFDQ,460 pM,6 of 6
GFNLNEYGIS,VIYADGRRTFYADSVK,GEQAGTFDI,550 pM,6 of 6
GFDLMNYGIS,VIYADGKRAAYIDDVK,GYSTGFLDV,no signal,0 of 6
GFSFNEYGIS,VIYADGKRQFYANTVK,GGKDAAFDI,no signal,0 of 6
GYDLVEYGIS,VIYADGQRTVYSDDVK,GNHGGTIDT,no signal,0 of 6
GFDLNEYGIS,VIYADGQRTVYADSVK,GENAGTFDI,740 pM,6 of 6
GFDLNEYGIS,VIYADGKRTAYIDSVK,GQVAGTFDV,240 pM,6 of 6
GFDLDEYGIS,VIYADGMRKAYADSVK,GETAGTFDV,370 pM,6 of 6
GFNLDEYGIS,VIYADGMRTFYTDSVK,GETAGTFDV,420 pM,6 of 6
GFDLMEYGIS,VIYADGTRTGYTDKVK,GWFGDTGKT,no signal,0 of 6
GFDLNEYGIS,VIYADGRRTFYADSVK,GKTAGTFNV,570 pM,6 of 6
GFDLDEYGIS,VIYADGRRTFYSDSVK,GEVAGTFDI,300 pM,6 of 6
GFDLNEYGIS,VIYADGVRTAYSDSVK,GNNAGTFDL,340 pM,6 of 6
DFNLNEYGIS,VIYADGMRASYRNDVK,GQISGDFML,no signal,0 of 6
GFDLNEYGIS,VIYADGMRTAYADKVK,GNNAGTFDQ,170 pM,6 of 6
GFDLNEYGIS,VIYADGMRTSYADSVK,GNNAGTFDI,no signal,0 of 6
GFNLDEYGIS,VIYADGKRTAYADSVK,GNVAGTFDL,960 pM,6 of 6
GDNLDEYGIS,VIYADGQRTAYDDPVK,GGQTGNVMV,no signal,0 of 6
GFDLNEYGIS,VIYADGKRTFYSDSVK,GNLAGTFDV,280 pM,6 of 6
GDSLNEYGIS,VIYADGLRSYYVNSVK,GEVDGLFSQ,no signal,0 of 6
GFSFDEYGIS,VIYADGKRTFYANTVK,GNKDMAFDI,no signal,0 of 6
GFDLNEYGIS,VIYADGVRTAYADDVK,GNVAGTFDI,370 pM,6 of 6
GFDLEDYGIS,VIYADGRRTQYADSVK,GEIAGTFDL,1.2 nM,6 of 6
GFDLNEYGIS,VIYADGKRTFYSDSVK,GTNGGTFDI,1.8 nM,6 of 6
GFNLDEYGIS,VIYADGRRTFYADSVK,GQHAGTFDT,180 pM,6 of 6
GFDLNEYGIS,VIYADGMRKYYADSVK,GQNAGTFDV,240 pM,6 of 6
GFDLNEYGIS,VIYADGRRTFYSDSVK,GAVAGTFDM,300 pM,6 of 6
GKDIEEYGVS,VIYADGKRNAYANKVK,GKNAGSFVD,no signal,0 of 6
GFDLDEYGIS,VIYADGRRTFYADSVK,GQNAGTFDT,200 pM,6 of 6
GFDLNEYGIS,VIYADGKRTAYSDSVK,GGVAGTFDV,310 pM,6 of 6

The first 3 variants above that were never detected:

| CDR-H1 | CDR-H2 | CDR-H3 | apparent Kd | seen in |
|---|---|---|---|---|
| GFNLDEYGVS | VIYADGQRTAYVQTVK | GKTVFVLFD | no signal | 0 of 6 |
| GYDLQEYGVS | VIYADGRRSVYINSVK | GLSAGTFVF | no signal | 0 of 6 |
| GFDLEEWGIS | VIYADGSRTAYADNVK | GMSGADLMF | no signal | 0 of 6 |